{"source": "patent US20100130549A1", "about": "“PSYCHOTROPIC COMPOUNDS, COMPOSITIONS AND METHODS OF USE” (priority 2007, published 2010)", "test_system": "BALBc male mice", "assay": "Hot plate test", "format": "in vivo", "conditions": "10 mg/kg orally (sertraline equimolar); followed for 6 hr", "text": "The hot-plate test is widely used to measure pain sensation. The latency in response to heat of mice and rats feet is based on the method described by Eddy et al., Synthetic analgesics. II. Dithienylbutylamines., J. Pharmacol. Exp. Ther. 107(3), 385-393 (1953). The method is based on placing an animal on heated (52-56 C) surface and measuring the time to response (raising paw, licking of the paw, jumping or running.\n. The animals were followed for 6 hr. […]. Significant delay in reaction to heating was found at 102 min. and 240 min. for compound Ia and at 120 min. following drug administration."}
{"smiles": "CN[C@H]1CC[C@@H](c2ccc(Cl)c(Cl)c2)c2ccccc21", "note": "[sertraline, reference compound]", "values": [{"measurement": "time after drug administration with significant effect on reaction to heating", "result": 120, "unit": "min"}]}
